This test concerns the target T1, recombinant human TNFα (human, UniProt P01375 77-233, 125I label in the receptor-blocking assay only).
T1 construct: also called huTNFα; tumor necrosis factor alpha
The test can be described thus: competition: 125I-TNFα (5 ng/ml) preincubated with anti-IL-18 control supernatant spiked with cA2, then bound to plate-coated p55-sf2, gamma counting; blocked partner p55-sf2.

By UniProt entry, the sequences of proteins in these tests, tags left out. Residues count along the entry.
UniProt P01375, 77-233 limits assumed: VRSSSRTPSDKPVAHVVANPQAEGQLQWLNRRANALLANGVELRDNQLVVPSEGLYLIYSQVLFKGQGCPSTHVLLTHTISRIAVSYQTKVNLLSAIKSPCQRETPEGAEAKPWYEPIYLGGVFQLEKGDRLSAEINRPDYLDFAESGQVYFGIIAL

B1: chimeric antibody cA2 (antibody, V domains shown)
VH: EVKLEESGGGLVQPGGSMKLSCVASGFIFSNHWMNWVRQSPEKGLEWVAEIRSKSINSATHYAESVKGRFTISRDDSKSAVYLQMTDLRTEDTGVYYCSRNYYGSTYDYWGQGTTLTVS
VL: DILLTQSPAILSVSPGERVSFSCRASQFVGSSIHWYQQRTNGSPRLLIKYASESMSGIPSRFSGSGSGTDFTLSINTVESEDIADYYCQQSHSWPFTFGSGTNLEVK
Consider B1, for which the “IC50 (read off the curve)” value is about 10 ng/mL.

(Values after US20210238271A1 (Janssen / Centocor, published 2021).)
